Amino acid sequences for entries named in this document (tags omitted). Residues count along the entry.
UniProt Q15116, 25-288: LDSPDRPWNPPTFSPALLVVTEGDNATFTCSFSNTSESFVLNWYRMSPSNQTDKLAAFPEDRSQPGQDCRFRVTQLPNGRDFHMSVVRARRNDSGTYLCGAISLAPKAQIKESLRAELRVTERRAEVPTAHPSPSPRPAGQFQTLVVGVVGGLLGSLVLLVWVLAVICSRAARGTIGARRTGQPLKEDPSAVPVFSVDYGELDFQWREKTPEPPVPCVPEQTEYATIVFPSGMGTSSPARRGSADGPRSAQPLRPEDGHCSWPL

In patent publication US20220259309A1:

Molecular target: human PD-1 on transfected Jurkat cells (human) (UniProt Q15116)
Assay: flow cytometry, pre-titration of Alexa Fluor 647 pembrolizumab

Alexa Fluor 647 human anti-human PD-1 (Pembrolizumab (KEYTRUDA), Clinical grade) (antibody)
receptor saturating concentration: 5.5 µg/mL
